Where two headings read alike, the source gives them in different places.

Test [1] deals with soluble HLA-A*0201 (sHLA-A*0201) (human). Briefly: FP titration with variable sHLA-A*0201, 10 nM peptide.
Test [2] shares this target. In words: FP, pFITC P1 titrated at 425 nM (20 µg/ml) sHLA-A*0201; FPmin = 27.00 mP.
The target is the same in test [3]. Briefly: FP, sHLA-A*0201 titrated against 10 nM FITC-labeled P1, plateau of the fit.
The target is the same in test [4].
Test [5] shares this target. The source holds these as a separate data set.
For test [6] the target is unchanged. Briefly: FP real-time association kinetics, 50 ug/mL sHLA-A*0201, excess b2m, 20 C.
Test [7] shares this target. This is another data set of the same source.
The target is the same in test [8]. In words: FP, passive loading at room temperature, highest sHLA concentration.
Test [9] has the same target. Briefly: FP, fixed FITC-peptide, sHLA preincubated at 54 C and titrated (the value is an sHLA concentration), 4 C, 140 hours.
Test [10] has the same target. This is another data set of the same source.
The target is the same in test [11]. In words: FP real-time association kinetics, intercept of kob against ligand concentration.
Test [12] has the same target. Briefly: FP, pFITC P2 titrated at 425 nM (20 µg/ml) sHLA-A*0201; FPmin = 27.00 mP.
For test [13] the target is unchanged. Briefly: FP, passive loading at room temperature.
Test [14] has the same target. Briefly: FP, sHLA-A*0201 titrated against 10 nM FITC-labeled P2, plateau of the fit.

As to FLPSDKFPSV (modifications not checked) [A*0201/P1, FITC-labeled peptide …], the increase of signal upon binding in test [1] is > 500%. Besides, the FPmax in [2] amounted to 179 mP; in [3] it was 183 mP. The same molecule yielded a Bmax in test [4] of 157 nM. Besides, the EC50 – broadly, the concentration at which the effect is half-maximal – in [5] turned out to be 0.202 µM.

Turning to SLYNKVATL (modifications not checked) [A*0201/P2, FITC-labeled peptide …], the kon (in general, the rate constant with which the complex forms) in [6] was found to be 19400 M⁻¹ s⁻¹. In test [7], this molecule yielded an EC50 of 0.277 µM. Further, in test [8], the change in polarization upon binding worked out at 40 mP and the maximal polarization level stood at 66 mP. Also, the EC50 (read off the curve) (usually the concentration that produces a half-maximal response) in test [9] amounted to 0.003 µM. Moreover, the Bmax in [10] turned out to be 104 nM. In addition, the koff – broadly, the first-order rate constant of dissociation – in test [11] amounted to 0.00024 s⁻¹. Besides, in test [12], the FPmax turned out to be 160 mP. The molecule also had a maximum FP in test [13] of 70 mP. Further, the FPmax in test [14] stood at 206 mP.
